Test results published in ChEMBL document CHEMBL5241100, “Sulfonamide derivatives as potential anti-cancer agents and their SARs elucidation” (Eur J Med Chem, 2021).

Tested on: HCT-116
Assay: cells
Details: Homo sapiens, HCT-116, 48 h

Nc1ccc(S(=O)(=O)Nc2ccsc2-c2nc(-c3ccccc3)no2)cc1
IC50: 6 µM
